Assay results taken from patent US5179122A, “Nutritional supplement containing Vitamin E” (priority 1991, dated 1993).

Experiments:
[1] = Surface tension as a function of concentration in water at room temperature (critical micelle concentration); format: physicochemical
Method: The surface tension of Myvatex Texture Lite was measured as function of concentration.

[2] = Melt temperature of VEA/TPGS blends by differential scanning calorimetry; format: physicochemical; settings: VEA/TPGS (wt. %); DSC
Method: In this example, miscibility of the blends was investigated by determining the melt temperature of various blend ratios. […] The mixture was heated and blended to a homogeneous blend and cooled to room temperature. The melting point of each blend was determined by differential scanning calorimetry.

[3] = horse, in vivo, 7200 min
[4] = human, in vivo, po; cited from earlier work

Substance: d-alpha-tocopherylpolyethylene glycol 1000 succinate [TPGS]
- critical micelle concentration [1]: about 0.01 g/100 mL
- Melt Temperature [2]: 43.5 °C
- tocopherol blood level relative to synthetic Vitamin E [3]: more than 3 times
- elevation of blood tocopherol [4]: elevation of blood tocopherol was detected within one week
